Reference: patent US20250230193A1, “CYCLIC COMPOUND HAVING SELECTIVE KRAS INHIBITORY EFFECT ON HRAS AND NRAS” (CHUGAI SEIYAKU KABUSHIKI KAISHA, priority 2022, published 2025)

The chains behind the UniProt entries cited, without tags or fusion partners.
UniProt P01111, whole entry: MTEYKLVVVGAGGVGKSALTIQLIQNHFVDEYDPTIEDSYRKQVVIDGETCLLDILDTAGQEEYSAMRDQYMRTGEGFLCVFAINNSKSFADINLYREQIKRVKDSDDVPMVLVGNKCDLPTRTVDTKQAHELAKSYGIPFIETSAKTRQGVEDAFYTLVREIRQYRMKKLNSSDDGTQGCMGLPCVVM
UniProt P01112, whole entry: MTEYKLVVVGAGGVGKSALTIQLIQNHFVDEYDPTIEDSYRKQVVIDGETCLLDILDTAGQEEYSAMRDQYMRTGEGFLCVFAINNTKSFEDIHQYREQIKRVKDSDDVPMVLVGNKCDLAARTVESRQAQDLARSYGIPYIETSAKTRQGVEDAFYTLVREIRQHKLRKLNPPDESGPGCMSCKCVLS

Key:
[1] = target: GDP-bound NRAS wild-type protein (Homo sapiens, UniProt P01111); experiment: Binding to NRAS by surface plasmon resonance (SPR), Single Cycle Kinetics; conditions: KD ratio class
[2] = target: GDP-bound HRAS wild-type protein (Homo sapiens, UniProt P01112); experiment: Binding to HRAS by surface plasmon resonance (SPR), Single Cycle Kinetics; conditions: KD ratio class

Compound	NRAS/KRAS (ratio of KD value for GDP-bound NRAS wild-type protein to KD value for KRAS) [1]	HRAS/KRAS (ratio of KD value for GDP-bound HRAS wild-type protein to KD value for KRAS) [2]
CCO[C@@H]1C[C@H]2C(=O)NC3(CCC3)C(=O)N(C)[C@@H](C3CCCC3)C(=O)N(C)[C@H](C(=O)N(C)C)CC(=O)N(C)[C@@H](CSC)C(=O)N[C@@H]([C@@H](C)CC)C(=O)N(C)CC(=O)N(C)[C@H]3C/C=C\CCN(C3=O)[C@@H](CC3CCC(F)(F)CC3)C(=O)N(C)CC(=O)N[C@@H](CCc3cc(F)c(C(F)(F)F)c(F)c3)C(=O)N2C1	A (a compound having 10 or more and less than 20 is denoted as A)	A (a compound having 10 or more and less than 20 is denoted as A)
CCO[C@@H]1C[C@H]2C(=O)NC3(CC(F)(F)C3)C(=O)N(C)[C@@H](C(CC)CC)C(=O)N(C)C(C(C)C)CC(=O)N(C)[C@@H](CC)C(=O)N[C@@H]([C@@H](C)CC)C(=O)N(C)CC(=O)N(C)[C@H]3C/C=C\CCN(C3=O)[C@@H](Cc3ccc(C(F)(F)F)cc3)C(=O)N(C)CC(=O)N[C@@H](CCc3cc(F)c(C(F)(F)F)c(F)c3)C(=O)N2C1 (stereo partly shown)	A (a compound having 10 or more and less than 20 is denoted as A)	A (a compound having 10 or more and less than 20 is denoted as A)
CCO[C@@H]1C[C@H]2C(=O)NC3(CCC3)C(=O)N(C)[C@@H](C3CCCC3)C(=O)N(C)[C@H](C(=O)N3CCCCC3)CC(=O)N(C)[C@@H](CC(F)F)C(=O)N[C@@H]([C@@H](C)CC)C(=O)N(C)CC(=O)N(C)[C@H]3C/C=C\CCN(C3=O)[C@@H](Cc3ccc(C(F)(F)F)cc3)C(=O)N(C)CC(=O)N[C@@H](CCc3cc(F)c(C(F)(F)F)c(F)c3)C(=O)N2C1	AA (a compound having 20 or more is denoted as AA)	A (a compound having 10 or more and less than 20 is denoted as A)
CCO[C@@H]1C[C@H]2C(=O)NC3(CCC3)C(=O)N(C)[C@@H](C3CCCC3)C(=O)N(C)[C@H](C(=O)N(C)C)CC(=O)N(C)[C@@H](CC)C(=O)N[C@@H](C3CCC3)C(=O)N(C)CC(=O)N(C)[C@H]3C/C=C\CCN(C3=O)[C@@H](Cc3ccc(C(F)(F)F)cc3)C(=O)N(C)CC(=O)N[C@@H](CCc3cc(F)c(C(F)(F)F)c(F)c3)C(=O)N2C1	A (a compound having 10 or more and less than 20 is denoted as A)	B (a compound having 3 or more and less than 10 is denoted as B)
CCO[C@@H]1C[C@H]2C(=O)NC3(CCC3)C(=O)N(C)[C@@H](C3CCCC3)C(=O)N(C)[C@H](C(=O)N3CCCC3)CC(=O)N(C)[C@@H](CC)C(=O)N[C@@H]([C@@H](C)CC)C(=O)N(C)CC(=O)N(C)[C@H]3C/C=C\CCN(C3=O)[C@@H](CC3CCCCC3)C(=O)N(C)CC(=O)N[C@@H](CCc3cc(F)c(C(F)(F)F)c(F)c3)C(=O)N2C1	AA (a compound having 20 or more is denoted as AA)	A (a compound having 10 or more and less than 20 is denoted as A)
CC[C@H](C)[C@@H]1NC(=O)[C@H](CC2CC2)N(C)C(=O)C[C@@H](C(=O)N(C)C)N(C)C(=O)[C@H](C2CCCC2)N(C)C(=O)C2(CCCC2)NC(=O)[C@@H]2CC(F)(F)CN2C(=O)[C@H](CCc2cc(F)c(C(F)(F)F)c(F)c2)NC(=O)CN(C)C(=O)[C@H](Cc2ccc(C(F)(F)F)cc2)N2CC/C=C\C[C@@H](C2=O)N(C)C(=O)CN(C)C1=O	A (a compound having 10 or more and less than 20 is denoted as A)	A (a compound having 10 or more and less than 20 is denoted as A)
CCC[C@H]1C(=O)N[C@@H]([C@@H](C)CC)C(=O)N(C)CC(=O)N(C)[C@H]2C/C=C\CCN(C2=O)[C@@H](Cc2ccc(C(F)(F)F)cc2)C(=O)N(C)CC(=O)N[C@@H](CCc2cc(F)c(C(F)(F)F)c(F)c2)C(=O)N2C[C@H](OCC)C[C@H]2C(=O)NC2(CCC2)C(=O)N(C)[C@@H](C(CC)CC)C(=O)N(C)[C@H](C(=O)N(C)C)CC(=O)N1C	AA (a compound having 20 or more is denoted as AA)	A (a compound having 10 or more and less than 20 is denoted as A)
CCO[C@@H]1C[C@H]2C(=O)NC3(CCC3)C(=O)N(C)[C@@H](C3CCCC3)C(=O)N(C)[C@H](C(=O)N3CCCC3)CC(=O)N(C)[C@@H](CC(C)C)C(=O)N[C@@H]([C@@H](C)CC)C(=O)N(C)CC(=O)N(C)[C@H]3C/C=C\CCN(C3=O)[C@@H](Cc3ccc(C(F)(F)F)cc3)C(=O)N(C)CC(=O)N[C@@H](CCc3cc(F)c(C(F)(F)F)c(F)c3)C(=O)N2C1	AA (a compound having 20 or more is denoted as AA)	A (a compound having 10 or more and less than 20 is denoted as A)
CCO[C@@H]1C[C@H]2C(=O)NC3(CCC3)C(=O)N(C)[C@@H](C3CCCC3)C(=O)N(C)[C@H](C(=O)N(C)C)CC(=O)N(C)[C@@H](CC(C)C)C(=O)N[C@@H]([C@@H](C)CC)C(=O)N(C)CC(=O)N(C)[C@H]3C/C=C\CCN(C3=O)[C@@H](CC3CCC(F)(F)CC3)C(=O)N(C)CC(=O)N[C@@H](CCc3cc(F)c(C(F)(F)F)c(F)c3)C(=O)N2C1	A (a compound having 10 or more and less than 20 is denoted as A)	A (a compound having 10 or more and less than 20 is denoted as A)
CC[C@H](C)[C@@H]1NC(=O)[C@H](CC2CC2)N(C)C(=O)C[C@@H](C(=O)N(C)C)N(C)C(=O)[C@H](C2CCCC2)N(C)C(=O)C2(CC(C)(C)C2)NC(=O)[C@@H]2C[C@@H](F)CN2C(=O)[C@H](CCc2cc(F)c(C(F)(F)F)c(F)c2)NC(=O)CN(C)C(=O)[C@H](Cc2ccc(C(F)(F)F)cc2)N2CC/C=C\C[C@@H](C2=O)N(C)C(=O)CN(C)C1=O	A (a compound having 10 or more and less than 20 is denoted as A)	A (a compound having 10 or more and less than 20 is denoted as A)
CCO[C@@H]1C[C@H]2C(=O)NC3(CCC3)C(=O)N(C)[C@@H](C3CCCC3)C(=O)N(C)[C@H](C(=O)N(C)C)CC(=O)N(C)[C@@H](CC)C(=O)N[C@@H]([C@@H](C)CC)C(=O)N(C)CC(=O)N(C)[C@H]3C/C=C\CCN(C3=O)[C@@H](CC3CCC(F)(F)CC3)C(=O)N(C)CC(=O)N[C@@H](CCc3cc(F)c(C(F)(F)F)c(F)c3)C(=O)N2C1	A (a compound having 10 or more and less than 20 is denoted as A)	A (a compound having 10 or more and less than 20 is denoted as A)
CCO[C@@H]1C[C@H]2C(=O)NC3(CCC3)C(=O)N(C)[C@@H](C3CCCC3)C(=O)N(C)[C@H](C(=O)N(C)C)CC(=O)N(C)[C@@H](CC3CC3)C(=O)N[C@@H]([C@@H](C)CC)C(=O)N(C)CC(=O)N(C)[C@H]3C/C=C\CCN(C3=O)[C@@H](Cc3ccc(F)cc3)C(=O)N(C)CC(=O)N[C@@H](CCc3cc(F)c(C(F)(F)F)c(F)c3)C(=O)N2C1	A (a compound having 10 or more and less than 20 is denoted as A)	B (a compound having 3 or more and less than 10 is denoted as B)
CC[C@H](C)[C@@H]1NC(=O)[C@H](CC)N(C)C(=O)C[C@@H](C(=O)N(C)C)N(C)C(=O)[C@H](C2CCCC2)N(C)C(=O)C2(CCC2)NC(=O)[C@@H]2CC(F)(F)CN2C(=O)[C@H](CCc2cc(F)c(C(F)(F)F)c(F)c2)NC(=O)CN(C)C(=O)[C@H](CC2CCC(F)(F)CC2)N2CC/C=C\C[C@@H](C2=O)N(C)C(=O)CN(C)C1=O	A (a compound having 10 or more and less than 20 is denoted as A)	A (a compound having 10 or more and less than 20 is denoted as A)
CCO[C@@H]1C[C@H]2C(=O)NC3(CC(F)(F)C3)C(=O)N(C)[C@@H](C3CCCC3)C(=O)N(C)[C@H](C(=O)N(C)C)CC(=O)N(C)[C@@H](CC)C(=O)N[C@@H]([C@@H](C)CC)C(=O)N(C)CC(=O)N(C)[C@H]3C/C=C\CCN(C3=O)[C@@H](Cc3ccc(C(F)(F)F)cc3)C(=O)N(C)CC(=O)N[C@@H](CCc3cc(F)c(C(F)(F)F)c(F)c3)C(=O)N2C1	A (a compound having 10 or more and less than 20 is denoted as A)	A (a compound having 10 or more and less than 20 is denoted as A)
CCO[C@@H]1C[C@H]2C(=O)NC3(CCC3)C(=O)N(C)[C@@H](C3CCCC3)C(=O)N(C)[C@H](C(=O)N(C)C)CC(=O)N(C)[C@@H](CC3CCC3)C(=O)N[C@@H]([C@@H](C)CC)C(=O)N(C)CC(=O)N(C)[C@H]3C/C=C\CCN(C3=O)[C@@H](CC3CCC(F)(F)CC3)C(=O)N(C)CC(=O)N[C@@H](CCc3cc(F)c(C(F)(F)F)c(F)c3)C(=O)N2C1	A (a compound having 10 or more and less than 20 is denoted as A)	A (a compound having 10 or more and less than 20 is denoted as A)
CCO[C@@H]1C[C@H]2C(=O)NC3(CCC3)C(=O)N(C)[C@@H](C3CCCC3)C(=O)N(C)[C@H](C(=O)N(C)C)CC(=O)N(C)[C@@H](CC)C(=O)N[C@@H]([C@@H](C)CC)C(=O)N(C)CC(=O)N(C)[C@H]3C/C=C\CCN(C3=O)[C@@H](Cc3ccc(C(F)(F)F)cc3)C(=O)N(C)CC(=O)N[C@@H](CCc3ccc(C(F)(F)F)c(OC)c3)C(=O)N2C1	A (a compound having 10 or more and less than 20 is denoted as A)	A (a compound having 10 or more and less than 20 is denoted as A)
CCO[C@@H]1C[C@H]2C(=O)NC3(CCC3)C(=O)N(C)[C@@H](C3CCCC3)C(=O)N(C)[C@H](C(=O)N3CCOCC3)CC(=O)N(C)[C@@H](CC)C(=O)N[C@@H]([C@@H](C)CC)C(=O)N(C)CC(=O)N(C)[C@H]3C/C=C\CCN(C3=O)[C@@H](Cc3ccc(C(F)(F)F)cc3)C(=O)N(C)CC(=O)N[C@@H](CCc3ccc(C(F)(F)F)c(Cl)c3)C(=O)N2C1	AA (a compound having 20 or more is denoted as AA)	A (a compound having 10 or more and less than 20 is denoted as A)
